# scFv variants of Ab-14 (heavy chain) against a SARS-CoV-2 spike peptide

Binding partner: SARS-CoV-2 spike HR2 peptide, sequence PDVDLGDISGINAS.

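The starting antibody came from a phage panning campaign against this peptide. Designed CDR sequences, proposed from the first random library and measured here. Several design methods are mixed in this list. In AlphaSeq, yeast of one mating type display the scFv and yeast of the other type display the target. Pairs that bind mate more often; barcode pairs of the diploids are counted by sequencing. Scores were corrected for input abundance and mapped to Kd with protein pairs of known affinity run in the same pool. Mating was done six times.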

Ab-14 is the parent antibody, in scFv form: VH, then the linker GGGGSGGGGSGGGGS, then VL. The light chain is unchanged in all variants.
VH: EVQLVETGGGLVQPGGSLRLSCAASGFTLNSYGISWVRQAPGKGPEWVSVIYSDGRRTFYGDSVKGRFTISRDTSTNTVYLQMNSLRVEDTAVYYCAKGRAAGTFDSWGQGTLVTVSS
VL: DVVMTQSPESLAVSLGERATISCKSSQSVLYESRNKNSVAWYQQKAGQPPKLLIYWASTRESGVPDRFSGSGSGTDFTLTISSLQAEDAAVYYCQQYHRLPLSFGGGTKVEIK

Variants are written as CDR1, CDR2 and CDR3 of the heavy chain (limits as in the source). Parent: GFTLNSYGIS, VIYSDGRRTFYGDSVK, GRAAGTFDS.
This list holds designs with more than six substitutions.
Kd is apparent (estimated from mating counts) and averaged on the log scale over replicates with a signal. Smaller is tighter.
An entry "nd" has no value in the source: the pair was not observed among the diploids in any replicate. This suggests poor binding but is not conclusive.
The range of this assay differs from that of the first round, and the authors advise against merging the two.

The variant GFNLEEYGIS / VIYADGFRASYQQKVK / GQDGLVGMD gave nd (0 of 6 replicates; controls 0 of 18). The variant GADLNEYGIS / VIYADGNRNAYANKFK / GTNGTFLIN showed nd (0 of 6 replicates; controls 0 of 18). The variant GFDIGEYGIS / VIYADGQRTAYKPTVK / GNNTGLVFI gave 3.1 µM (1 of 6 replicates; controls 0 of 18). The variant GFDLNEYGIS / VIYADGVRTAYADSVK / GNHAGTFDV gave 500 pM (6 of 6 replicates; controls 0 of 18). For GFNLEDYGIS / VIYADGRRTFYADSVK / GHVAGTFDV, the assay gave 400 pM (6 of 6 replicates; controls 0 of 18). The variant GFDLNEYGIS / VIYADGRRTAYLDSVK / GQVAGTFDS showed 220 pM (5 of 6 replicates; controls 0 of 18). The variant GFDLDEYGIS / VIYADGMRTAYADKVK / GENAGTFDV showed 1.2 nM (6 of 6 replicates; controls 1 of 18). With GFDLNEYGIS / VIYADGIRTAYADSVK / GNVAGTFDM the result was 1.2 nM (6 of 6 replicates; controls 0 of 18). With GFDLNEYGIS / VIYADGVRTAYADSVK / GNHAGTFDI the result was 460 pM (6 of 6 replicates; controls 0 of 18).

For GFDLDEYGIS / VIYADGMRTSYADSVK / GEAAGTFDV, the assay gave 510 pM (6 of 6 replicates; controls 1 of 18). With GFDLEDYGIS / VIYADGRRTAYTDSVK / GEAAGTFDS the result was 590 pM (6 of 6 replicates; controls 1 of 18). The variant GFNLNEYGIS / VIYADGVRKFYADSVK / GNTAGTFDS gave 300 pM (6 of 6 replicates; controls 0 of 18). For GFDLDEYGIS / VIYADGQRTAYADSVK / GNTAGTFDQ, the assay gave 360 pM (6 of 6 replicates; controls 0 of 18). With GFDLNEYGIS / VIYADGRRTFYTDSVK / GENAGTFDQ the result was 420 pM (6 of 6 replicates; controls 0 of 18). For GFDLDEYGIS / VIYADGQRTYYADSVK / GEVAGTFDV, the assay gave 410 pM (6 of 6 replicates; controls 0 of 18). The variant GFQIDEYGIS / VIYADGMRSAYKNSVK / NGMNVSGIV showed nd (0 of 6 replicates; controls 0 of 18). The variant GFDLNEYGIS / VIYADGVRTFYSDSVK / GNQAGTFDV gave 1.1 nM (6 of 6 replicates; controls 0 of 18). For GDSLDEYGIS / VIYADGQRVQYVDPFK / GEQAGNVDV, the assay gave nd (0 of 6 replicates; controls 0 of 18).

The variant GFDLNEYGIS / VIYADGIRTAYVDKVK / SRDGIVILF showed nd (0 of 6 replicates; controls 0 of 18). For GFDLNEYGIS / VIYADGRRTFYSDSVK / GAVAGTFDI, the assay gave 250 pM (6 of 6 replicates; controls 0 of 18). The variant GFDLAEQGIS / VIYADGMRTAYAQNFK / GYIGGTIMD gave nd (0 of 6 replicates; controls 0 of 18). For GFDLDEYGIS / VIYADGMRTAYIDSVK / GNEAGTFDV, the assay gave 130 pM (6 of 6 replicates; controls 0 of 18). The variant GFDLNEYGIS / VIYADGRRTFYSDSVK / GEAAGTFVV gave 9.2 nM (6 of 6 replicates; controls 0 of 18). The variant GFHLDEYGIS / VIYADGRRVFYQDKVK / GHHGTVAVM gave nd (0 of 6 replicates; controls 0 of 18). The variant GFDLDEYGIS / VIYADGRRTYYADSVK / GQNAGTFDQ showed 160 pM (6 of 6 replicates; controls 0 of 18). The variant GFDLNEYGIS / VIYADGMRTFYADSVK / GQLAGTFDI showed 310 pM (6 of 6 replicates; controls 0 of 18). The variant GFDLNEYGIS / VIYADGRRTAYADDVK / GNNAGTFDI gave 450 pM (6 of 6 replicates; controls 0 of 18).

With GFDLDEYGIS / VIYADGKRTFYADSVK / GEAAGTFDV the result was 740 pM (6 of 6 replicates; controls 1 of 18). The variant GFDLNEYGIS / VIYADGKRTFYSDSVK / GEVAGTFDQ showed 240 pM (6 of 6 replicates; controls 0 of 18). The variant GFDLDEMGIS / VIYADGRRVYYTDKVK / GANGVDIKL gave nd (0 of 6 replicates; controls 0 of 18). The variant GFNLNEYGIS / VIYADGRRTFYSNSVK / GEIAGTFDV gave 240 pM (6 of 6 replicates; controls 0 of 18). The variant GFDVDEYGIS / VIYADGRRVAYHDSFK / GQNNVVSIV showed 560 pM (6 of 6 replicates; controls 0 of 18). For GFDLNEYGIS / VIYADGRRTFYADSVK / GNQAGTFIM, the assay gave 29 nM (6 of 6 replicates; controls 0 of 18). The variant GFDLQEYGIS / VIYADGVREAYRNSFK / GQIAGTINS showed 16 nM (1 of 6 replicates; controls 1 of 18). With GFDLDEYGIS / VIYADGRRTAYADSVK / GNEAGTFDL the result was 270 pM (6 of 6 replicates; controls 0 of 18). The variant GFDLNEYGIS / VIYADGMRTAYANSVK / GNVAGTFDT showed 1.6 nM (6 of 6 replicates; controls 1 of 18).

The variant GFDLNEYGIS / VIYADGVRTAYADNVK / GETAGTFDI showed 3.9 nM (6 of 6 replicates; controls 2 of 18). With GFDLDEYGIS / VIYADGMRTYYADSVK / GNNAGTFDI the result was 3.0 nM (6 of 6 replicates; controls 0 of 18). The variant GFDLNEYGIS / VIYADGVRTAYADNVK / GENAGTFDI showed 770 pM (6 of 6 replicates; controls 0 of 18). The variant GFDLNEYGIS / VIYADGQRTAYADSVK / GTVAGTFDS showed 450 pM (6 of 6 replicates; controls 0 of 18). For GQDLKEYGIS / VIYADGKRSYYVQDVK / GTNVGQGTF, the assay gave nd (0 of 6 replicates; controls 1 of 18). The variant GFDLNEYGIS / VIYADGMRTAYADDVK / GNQAGTFDL showed 5.6 nM (6 of 6 replicates; controls 0 of 18). The variant GFDLNEYGIS / VIYADGQRTFYADSVK / GEVAGTFDV gave 110 pM (6 of 6 replicates; controls 0 of 18). The variant GFDLDEYGIS / VIYADGQRTAYADSVK / GTNAGTFDT showed 970 pM (6 of 6 replicates; controls 0 of 18). For GFDINEYGIS / VIYADGMRTAYADSVK / GNVAGTFDI, the assay gave 570 pM (6 of 6 replicates; controls 1 of 18).

For GQDLNEYGIS / VIYADGRRQMYANPVK / GHQGGIKLD, the assay gave nd (0 of 6 replicates; controls 0 of 18).

Picked from the list: the 4 lowest averages where every replicate gave a value.

Variant GFDLNEYGIS / VIYADGQRTFYADSVK / GEVAGTFDV gave 110 pM (6 of 6 replicates; controls 0 of 18).
Variant GFDLDEYGIS / VIYADGMRTAYIDSVK / GNEAGTFDV gave 130 pM (6 of 6 replicates; controls 0 of 18).
Variant GFDLDEYGIS / VIYADGRRTYYADSVK / GQNAGTFDQ gave 160 pM (6 of 6 replicates; controls 0 of 18).
Variant GFNLNEYGIS / VIYADGRRTFYSNSVK / GEIAGTFDV gave 240 pM (6 of 6 replicates; controls 0 of 18).

Nonspecific signal, from three strains lacking the peptide, appeared in 1% of pairings of all heavy chain designs, centred on 120 nM (5% of these signals below 7.0 nM); values are not corrected for it. The control count says in how many pairings with the empty strains this scFv gave a signal.
In the paper, a design with two or fewer of six values counts as a poor binder.

Reference: Li et al. 2023, doi:10.1038/s41467-023-39022-2. File: FLAb, binding data.